## Yeast mating assay 1: variants of the scFv Ab-14

Binding partner: SARS-CoV-2 spike HR2 peptide, sequence PDVDLGDISGINAS.

Ab-14 is the parent antibody, in scFv form: VH, then three GGGGS repeats, then VL. The heavy chain is unchanged in all variants.
VH: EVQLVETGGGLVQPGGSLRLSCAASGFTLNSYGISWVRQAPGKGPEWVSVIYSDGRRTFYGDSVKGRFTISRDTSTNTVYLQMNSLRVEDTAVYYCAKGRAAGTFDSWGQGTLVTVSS
VL: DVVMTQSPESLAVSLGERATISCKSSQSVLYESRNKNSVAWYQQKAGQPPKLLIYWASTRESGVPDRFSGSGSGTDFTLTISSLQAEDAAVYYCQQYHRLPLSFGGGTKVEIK

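Library AAYL50 holds single substitutions and randomly drawn double and triple substitutions in the CDRs. The assay is AlphaSeq: two haploid yeast populations carry antibody and antigen on their surface. Binding brings cells together so that they mate, and sequencing counts the barcode pairs among the diploids. The ratio of observed to expected reads was calibrated, replicate by replicate, on BCL2-family standards whose Kd was known from biolayer interferometry. The assay was run in three technical replicates.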

Substitutions are numbered in sequence along the VL above, starting at 1 (not Kabat).
Scale: log10 of Kd in nM, estimated from mating counts; low values are strong binders.
Where no diploid with the target was found in that replicate, the entry reads "n.d.": below detection, most likely a poor binder, though not proof of it.

| changes | log10 Kd, replicates | control signals |
|---|---|---|
| V29R Y31H S38L | n.d. n.d. n.d. | 0/9 |
| S26E N37M V39E | 4.35 n.d. n.d. | 2/9 (4.62) |
| S26D L30E E61P | 1.00 1.10 1.28 | 1/9 (4.60) |
| S28A S38V W56P | n.d. n.d. n.d. | 0/9 |
| S25N V29R Y97P | 1.50 1.56 1.65 | 0/9 |
| A40R A57K | 4.32 n.d. n.d. | 2/9 (4.17) |
| S28N S38F S58P | n.d. n.d. n.d. | 1/9 (3.77) |
| L30C Q95H L102G | 1.25 1.46 1.47 | 0/9 |
| Y97R P101T | 2.76 2.66 3.27 | 8/9 (4.69) |
| S28P R60Q L102S | 2.24 2.08 2.26 | 3/9 (3.88) |
| Y31A | 0.81 0.99 0.86 | 3/9 (5.03) |
| S38P Q95Y Y97Q | 1.31 1.21 1.28 | 2/9 (3.73) |
| N35R R99P | 1.85 1.82 2.51 | 0/9 |
| S25P T59W | n.d. n.d. 2.81 | 0/9 |
| V39Y E61A S103H | 3.32 n.d. n.d. | 0/9 |
| S62D H98S | 0.43 0.68 0.66 | 7/9 (4.53) |
| Y31C E61Q S103V | 2.12 1.93 2.40 | 3/9 (4.10) |
| R34H V39K S58V | 2.61 n.d. 4.69 | 1/9 (2.84) |
| S28V E32A W56S | 0.90 0.96 0.97 | 5/9 (5.14) |
| S26Q S58Q R60K | 3.09 3.34 1.94 | 0/9 |
| N37Y V39T S58G | 4.52 4.12 5.61 | 7/9 (4.69) |
| A57K R60L L102I | n.d. n.d. n.d. | 3/9 (4.09) |
| L30Y A57D H98S | 0.39 0.75 0.67 | 2/9 (3.49) |
| S33W A57T | 2.64 2.28 1.99 | 0/9 |
| S26V R99W P101R | n.d. n.d. 4.63 | 1/9 (3.01) |
| A40T T59W R99M | n.d. n.d. n.d. | 0/9 |
| S26K N35Q P101C | n.d. n.d. n.d. | 0/9 |
| S28R N37E W56C | 3.07 3.74 3.00 | 2/9 (4.43) |
| S33R V39S R60P | 1.34 1.42 1.46 | 0/9 |
| K24Y S33V S58R | n.d. n.d. 4.91 | 3/9 (4.41) |
| S25G A57D S103I | 2.78 n.d. n.d. | 0/9 |
| Y31I K36F S58H | n.d. n.d. n.d. | 0/9 |
| Q95W Y97Q H98A | n.d. n.d. n.d. | 1/9 (3.36) |
| S26W R34T K36N | 4.00 n.d. 2.87 | 0/9 |
| S28V Y97N H98Y | n.d. n.d. n.d. | 0/9 |
| E32D K36P A40D | n.d. n.d. n.d. | 0/9 |
| E32S N35S Q96R | 1.16 1.28 1.18 | 3/9 (3.73) |
| S25P R34M S58A | 2.42 2.46 2.36 | 1/9 (4.15) |
| R99G L100Q | n.d. n.d. n.d. | 1/9 (3.13) |
| Y31V R34K Y97D | 2.74 2.53 3.33 | 0/9 |
| S26V A57G S62I | 0.67 1.03 0.88 | 1/9 (5.73) |
| S33V W56S E61N | 0.75 0.88 0.95 | 4/9 (5.08) |
| S28Y R99D P101L | n.d. n.d. n.d. | 1/9 (5.17) |
| S28N T59M H98C | 1.86 2.93 3.10 | 0/9 |
| R34N P101V | 3.39 1.99 2.53 | 2/9 (4.38) |
| K24I K36M Q96R | 3.76 n.d. 4.78 | 2/9 (4.55) |
| V29M S38C W56K | 0.82 1.06 0.99 | 0/9 |
| L30S N35A Y97Q | 1.11 1.26 1.43 | 3/9 (4.17) |

A selection of 7 entries from above:

| changes | log10 Kd, replicates | control signals |
|---|---|---|
| R34H V39K S58V | 2.61 n.d. 4.69 | 1/9 (2.84) |
| N37Y V39T S58G | 4.52 4.12 5.61 | 7/9 (4.69) |
| S25G A57D S103I | 2.78 n.d. n.d. | 0/9 |
| S33R V39S R60P | 1.34 1.42 1.46 | 0/9 |
| V39Y E61A S103H | 3.32 n.d. n.d. | 0/9 |
| S62D H98S | 0.43 0.68 0.66 | 7/9 (4.53) |
| S28N S38F S58P | n.d. n.d. n.d. | 1/9 (3.77) |

Nonspecific signal, from three strains lacking the peptide, appeared in 18% of pairings of library AAYL50, centred on 4.19 (5% of these signals below 2.99); values are not corrected for it. The control count says in how many pairings with the empty strains this scFv gave a signal, with their mean in brackets.
In this assay the parent's reference entry averaged 0.65; its copy inside this library read 1.68.

Data: MIT Lincoln Laboratory AlphaSeq set, Engelhart et al. 2022, doi:10.1038/s41597-022-01779-4, as distributed in FLAb.